Ab-14 heavy chain CDR variants: yeast mating affinities

The target is the same throughout: PDVDLGDISGINAS, from the HR2 region of SARS-CoV-2 spike.

The variants keep the light chain, the linker and the frameworks of Ab-14 (scFv order VH, the linker GGGGSGGGGSGGGGS, VL).
VH: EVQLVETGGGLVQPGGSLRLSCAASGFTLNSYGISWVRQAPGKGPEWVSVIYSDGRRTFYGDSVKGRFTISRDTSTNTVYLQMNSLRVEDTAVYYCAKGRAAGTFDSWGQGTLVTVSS
VL: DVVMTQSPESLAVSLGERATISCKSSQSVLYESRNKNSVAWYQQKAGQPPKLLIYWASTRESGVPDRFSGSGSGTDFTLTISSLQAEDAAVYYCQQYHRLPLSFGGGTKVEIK

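Phage display of a naive human antibody library on the peptide gave the parent. Variants in AAYL49 differ from the parent at up to three CDR positions; double and triple changes were sampled at random. The assay is AlphaSeq: two haploid yeast populations carry antibody and antigen on their surface. Mating (16 h, 30 °C) was followed by selection of diploids and sequencing of their barcodes. Read counts were normalised to the haploid input and turned into Kd by a linear fit to BCL2-family pairs of known affinity, for each replicate. There are three technical replicates.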

Each variant is given by its three heavy chain CDRs, as the data file delimits them; those of the parent are GFTLNSYGIS, VIYSDGRRTFYGDSVK, GRAAGTFDS.
Values are log10 of the apparent Kd in nM; lower means stronger binding.
Averages over replicates are reported, and they cover detected replicates only.
An entry "not detected" has no value in the source: the pair was not observed among the diploids in any replicate. This suggests poor binding but is not conclusive.
Background: pairings of library AAYL49 with three empty control strains gave a value in 15% of cases (median 4.06, 5th percentile 2.83). Values in that range, when seen in few replicates, are hard to tell from nonspecific mating.
For reference, the parent read 0.65 as the reference entry and 4.11 (one replicate of three) as a member of this library.

CDR-H1 | CDR-H2 | CDR-H3 | mean log10 Kd (nM) | replicates with signal
GFTLNSYGIS | VIYSDGRRHMYGDSVK | GRAAGTFDS | 2.19 | 3/3
GFTLMSYGIS | VIYSDGRRTFYGDSVK | GRAAGRLDS | 4.74 | 2/3
GDTLCSYGMS | VIYSDGRRTFYGDSVK | GRAAGTFDS | 4.27 | 3/3
GFKLNSYGIS | VIYGDGRRTFYGDSNK | GRAAGTFDS | not detected | 0/3
GFTLNLYGIS | GIYSDGRRTFYGDSVK | GNAAGTFDS | not detected | 0/3
GFTLNSYGIS | VIYSDGRRTFNGDSVK | GRAAKTFDQ | not detected | 0/3
GFTLNSYGIS | VIYSDGRRTFYFDDVK | GRAWGTFDS | 4.04 | 1/3
GFTLMSYGIS | VIYSDMRRTFYGDSVK | GRAANTFDS | 4.42 | 3/3
GFTLNSKGIS | VIYSDGRRTFYGNSVH | GRAAGTFDS | not detected | 0/3
GAILNSYGIT | VIYSDGRRTFYGDSVK | GRAAGTFDS | not detected | 0/3
GFFLNSYGIS | VIYSDGRRTFYLDSVK | GRAAGTFDS | 2.05 | 3/3
GFTLNSCGIS | VIYSDGRRTIYGDPVK | GRAAGTFDS | not detected | 0/3
IFTLWSYGIS | IIYSDGRRTFYGDSVK | GRAAGTFDS | 3.47 | 1/3
GFTLNSYGIS | HIYSDGRRTFYGDSQK | GRAAGTFDW | not detected | 0/3
GFTLNSYPIS | VITSDGRRTCYGDSVK | GRAAGTFDS | not detected | 0/3
GFTLNSYGIS | VIYSDGWRTFYGDSVK | GRAARTFDS | 4.85 | 1/3
GWTLNFYGIS | VIYSDGRRTFYTDSVK | GRAAGTFDS | 2.00 | 3/3
GFTLNSYGIS | VIYSDGRNTFYGDHVK | GRAAGTFDS | 3.67 | 1/3
QFTLNSYGIS | PIKSDGRRTFYGDSVK | GRAAGTFDS | not detected | 0/3
GFTLNSYYIS | VIYSDGRRTFYGDSVK | WRAAGTFDK | not detected | 0/3
GFTLPSYGIK | VIYSAGRRTFYGDSVK | GRAAGTFDS | 3.64 | 1/3
GFTLNTYGIM | VIYKDGRRTFYGDSVK | GRAAGTFDS | 5.14 | 1/3
GFTLGSYGIS | VIYSDGRRTFYGDSVT | GRAAPTFDS | 3.70 | 1/3
GFTLNSYGIS | VIYSLGRRTFYGDSVK | NRAAGTFDS | 5.26 | 1/3
GFTLNSQGIS | VEYSDGRRTFSGDSVK | GRAAGTFDS | not detected | 0/3
GFTLNSYGIV | YIYSDGRRTFYGDSVK | GRAAGIFDS | not detected | 0/3
AFTLNSYGIS | VIYSDGFRTFYMDSVK | GRAAGTFDS | not detected | 0/3
GLTLNSYGIS | VGYSDGRRTFYGDLVK | GRAAGTFDS | 3.43 | 1/3
GFTLNSYGIS | VFYQDGRRTFYGDSVK | GRAAGTGDS | not detected | 0/3
GFTLNSYGIS | VIYSDGRRTFYGDSGK | GKAAGTFDS | 2.40 | 3/3
GFTLISYGIS | VIYSDGRRTFYGDSVK | GPAAPTFDS | not detected | 0/3
GFWLNSYGIS | VIYSDGRRTFYGDSVF | GEAAGTFDS | 2.95 | 3/3
GFTLNSYGIS | VIYSDGRRTFYGDSVK | GRAYITFDS | 1.35 | 3/3
GFTLNSYGIS | VIYSDGRRTFYLDSVK | ARALGTFDS | 3.52 | 2/3
GFTLNSYGIS | GIYLDGRRTFYGDSVK | GRAFGTFDS | not detected | 0/3
GKTLNSYGAS | VIYSDGRRTFYGDSVK | GRAAITFDS | not detected | 0/3
GFTLNSYGNF | VPYSDGRRTFYGDSVK | GRAAGTFDS | not detected | 0/3

Further variants, results first:

mean log10 Kd (nM) | replicates with signal | CDR-H1 | CDR-H2 | CDR-H3
5.10 | 1/3 | GFTLNSYGIS | VIYSCGRRTFYGDSVS | GREAGTFDS
not detected | 0/3 | GVTLNSYFIS | IIYSDGRRTFYGDSVK | GRAAGTFDS
2.69 | 2/3 | CKTLNSYGIS | VIYSDGRRTFYGDSVK | GRAADTFDS
4.33 | 1/3 | GFTYNSYGVS | VIYSDGRRTFYGDSWK | GRAAGTFDS
not detected | 0/3 | GATLNSYGIS | VIYSDGRRTFTGDSVK | GRAAGTFDS
3.35 | 3/3 | GFTLNSYGIS | VIYSDGRRTVYGDYVK | GRAAGTFDY
5.31 | 1/3 | GFTLNSYGIS | VIYSDGRCTFMGDSVK | KRAAGTFDS
not detected | 0/3 | GFTLNRYGIS | VIYSIGRRTFYNDSVK | GRAAGTFDS
4.26 | 1/3 | GFTLRSYGIS | VIYSDGRRTFYGDFVK | GRAAGEFDS
3.57 | 2/3 | GFTLNSYGIS | VIYSDGQRTFSGDSVK | GRAAGTFDS
4.84 | 2/3 | GFTLNSYGQS | VLTSDGRRTFYGDSVK | GRAAGTFDS
0.87 | 3/3 | GMTINSYGIS | VIYSDGRRTFYGDSVK | GRAAGTFDN
4.65 | 3/3 | GFFLNSYGIS | VRYSDGRRTFYGDPVK | GRAAGTFDS
1.62 | 3/3 | GFTLNSYGIS | IIYSDGRRTFYGESVK | GRAAGTFDS
not detected | 0/3 | GFTLNSYGIS | VIYSDGRYTFYGDSVK | GRANGTEDS
not detected | 0/3 | GFTLTSYGDS | VIYSDGMRTFYGDSVK | GRAAGTFDS
not detected | 0/3 | GFTLNSYGIS | VCYTDGRREFYGDSVK | GRAAGTFDS
not detected | 0/3 | GFTLNSYECS | VIYSDGRRTFRGDSVK | GRAAGTFDS
not detected | 0/3 | GFTLNSYGIS | VIYSDGRRTAYGDSVN | GWAAGTFDS
not detected | 0/3 | GFMLNSYGIS | VIYSDGRRTFYGDSVK | GKAAGTFLS
not detected | 0/3 | YFTLNSYGIS | VIYPDGRRTFYGDSVK | GRAAGYFDS
not detected | 0/3 | GFTLNSYGAS | VIYSDGRRTFYMDSVK | GRAAGTFIS
4.39 | 2/3 | GFTLNSYGIS | VIYSDDERTFYGDSVV | GRAAGTFDS
3.52 | 1/3 | GFTLNSYVIS | WIYSDGRRTFYGDSVH | GRAAGTFDS
3.69 | 1/3 | GFTYNSYGIS | VWYSDGRRTFYGDSVK | GRAAGTFDS
1.09 | 3/3 | GFTLNSYGIS | VIYSDGRRTMYGDSVK | GRAPGTFDS
not detected | 0/3 | GFTLNSYGIS | NWYRDGRRTFYGDSVK | GRAAGTFDS
not detected | 0/3 | GFTLRSYGIS | CIYSDGRRTFYGDSVK | GKAAGTFDS
3.91 | 1/3 | GFTLNSYGIS | VICSDGRQTFYGDSVK | GRAAGTFDS
2.96 | 1/3 | GFTLNSYGIS | VIYSDGRRTHYGDSVH | GRAAGTFDS
5.45 | 1/3 | GFTLNAYGIS | VIYRDGRRTFIGDSVK | GRAAGTFDS
not detected | 0/3 | GFTLNSYGIS | VIWSDGRRTFLGYSVK | GRAAGTFDS
not detected | 0/3 | GFTLNSYGIQ | VIYSDGRRTFYGDSVK | GRAAGYFDS
1.47 | 3/3 | GFTLCSYGIS | VIYSDGRRTFYGDSVR | GQAAGTFDS
not detected | 0/3 | GFTLNSYGIS | VCISDGRRTSYGDSVK | GRAAGTFDS
3.75 | 2/3 | GFTLNSYGIS | FIYSDGRRTFYGESHK | GRAAGTFDS
not detected | 0/3 | GFTLNSYGIR | VIYSDGRRTFYGDVVK | GRAAGSFDS
not detected | 0/3 | GFTLNSYGGS | VIYSDGRRTFYDDSVK | GRAAGTFDS

Picked from the list: the 10 lowest averages where every replicate gave a value.

CDR-H1 | CDR-H2 | CDR-H3 | mean log10 Kd (nM) | replicates with signal
GMTINSYGIS | VIYSDGRRTFYGDSVK | GRAAGTFDN | 0.87 | 3/3
GFTLNSYGIS | VIYSDGRRTMYGDSVK | GRAPGTFDS | 1.09 | 3/3
GFTLNSYGIS | VIYSDGRRTFYGDSVK | GRAYITFDS | 1.35 | 3/3
GFTLCSYGIS | VIYSDGRRTFYGDSVR | GQAAGTFDS | 1.47 | 3/3
GFTLNSYGIS | IIYSDGRRTFYGESVK | GRAAGTFDS | 1.62 | 3/3
GWTLNFYGIS | VIYSDGRRTFYTDSVK | GRAAGTFDS | 2.00 | 3/3
GFFLNSYGIS | VIYSDGRRTFYLDSVK | GRAAGTFDS | 2.05 | 3/3
GFTLNSYGIS | VIYSDGRRHMYGDSVK | GRAAGTFDS | 2.19 | 3/3
GFTLNSYGIS | VIYSDGRRTFYGDSGK | GKAAGTFDS | 2.40 | 3/3
GFWLNSYGIS | VIYSDGRRTFYGDSVF | GEAAGTFDS | 2.95 | 3/3

Reference: Engelhart et al. 2022, doi:10.1038/s41597-022-01779-4. File: FLAb, binding data.